Values of other authors as cited in patent US6599541B1, “Composition for treatment of drug resistant bacterial infections and a method of treating drug resistant bacterial infections” (priority 1999, dated 2003).

Conditions: highest serum concentration reached after the maximum therapeutic dose in-vivo; cited from earlier work

## Co-trimoxazole
  break point: 4/76
